One compound from the NIST ThermoML archive (doi:10.1021/acs.jced.8b00954) can be followed below.

For data set [1] the following is noted: Crystal; DTA.
A short description of data set [2]: Molar enthalpy of transition or fusion. The note with it: Crystal; DSC.

Molecules are shown by their SMILES. ± gives the expanded uncertainty stated by the source.

For `CC(C)(C)NSc1nc2ccccc2s1` [N-tert-butylbenzothiazole-2-sulphenamide], in data set [1], the Normal melting temperature is 109.30 ± 0.7 °C. Also, in data set [2], the “Molar enthalpy of transition or fusion” value came out at 6.41 ± 0.143 kcal/mol.
